The results in this text go back to publication PMC5399312 (Journal of Experimental & Clinical Cancer Research : CR, 2017).

Protein sequences, listed by entry. Tags and fused reporters are not part of them.
UniProt P35557, whole entry: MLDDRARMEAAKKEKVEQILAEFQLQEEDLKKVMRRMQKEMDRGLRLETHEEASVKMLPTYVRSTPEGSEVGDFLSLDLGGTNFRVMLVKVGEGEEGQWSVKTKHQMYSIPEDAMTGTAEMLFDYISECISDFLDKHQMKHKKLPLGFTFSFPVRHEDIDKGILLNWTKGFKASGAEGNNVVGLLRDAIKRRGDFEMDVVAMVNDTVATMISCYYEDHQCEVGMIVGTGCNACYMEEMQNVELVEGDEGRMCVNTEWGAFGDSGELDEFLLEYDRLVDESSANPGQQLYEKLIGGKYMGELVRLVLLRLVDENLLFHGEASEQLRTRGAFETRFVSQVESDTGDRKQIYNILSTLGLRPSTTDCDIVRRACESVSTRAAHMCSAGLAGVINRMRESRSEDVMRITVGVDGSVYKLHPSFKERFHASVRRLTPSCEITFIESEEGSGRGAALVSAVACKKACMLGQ

Assay [1] deals with T1, HK4 (Homo sapiens, UniProt P35557).
T1 construct: made in house; host or cells: E. coli BL21 (DE3)
The assay can be described thus: In vitro enzyme inhibition assay (G6P-DH coupled, NADH 340 nm). The format is biochemical. The procedure: (§1) Then 85 μL assay mix containing 100 mM Tris HCl pH 8.0, 5 mM MgCl2, 200 mM Glucose, 0.8 mM ATP, 1 mM NAD^+, 0.25 Units of G6P-DH, was added.

Assay [2] deals with T2, HK1 (Homo sapiens, UniProt P19367).
T2 construct: purchased Shanghai yuanye Bio-Technology Co., Ltd (China)
T2 sequence (P19367 1-917): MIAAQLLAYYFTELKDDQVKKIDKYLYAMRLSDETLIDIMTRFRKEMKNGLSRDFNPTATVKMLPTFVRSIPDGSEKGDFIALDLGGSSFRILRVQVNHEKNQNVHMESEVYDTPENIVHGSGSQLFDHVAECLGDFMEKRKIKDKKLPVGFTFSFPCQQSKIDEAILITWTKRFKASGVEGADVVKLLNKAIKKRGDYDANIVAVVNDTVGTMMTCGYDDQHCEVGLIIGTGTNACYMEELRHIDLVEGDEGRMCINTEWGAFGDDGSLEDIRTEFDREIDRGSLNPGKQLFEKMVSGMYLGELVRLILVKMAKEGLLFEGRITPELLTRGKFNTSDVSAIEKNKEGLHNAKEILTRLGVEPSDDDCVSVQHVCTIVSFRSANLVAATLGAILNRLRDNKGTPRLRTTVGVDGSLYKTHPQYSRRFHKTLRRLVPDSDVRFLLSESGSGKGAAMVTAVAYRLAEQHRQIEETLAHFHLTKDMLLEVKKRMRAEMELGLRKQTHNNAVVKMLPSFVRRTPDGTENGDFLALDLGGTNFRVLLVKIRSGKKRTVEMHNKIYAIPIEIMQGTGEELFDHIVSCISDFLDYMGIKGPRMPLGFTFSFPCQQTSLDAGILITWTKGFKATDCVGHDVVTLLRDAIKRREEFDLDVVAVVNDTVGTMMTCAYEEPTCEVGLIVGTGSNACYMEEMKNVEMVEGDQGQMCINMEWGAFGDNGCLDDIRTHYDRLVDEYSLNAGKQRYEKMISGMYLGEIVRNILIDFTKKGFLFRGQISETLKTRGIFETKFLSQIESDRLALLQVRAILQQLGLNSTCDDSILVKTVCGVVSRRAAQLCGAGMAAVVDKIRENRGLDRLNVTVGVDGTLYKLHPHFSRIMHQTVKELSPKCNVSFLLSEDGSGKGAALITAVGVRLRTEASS
The assay is described as above. The format is biochemical. On the procedure:
as §1

Regarding `NC(CO)C(=O)NNCc1ccc(O)c(O)c1O` (centres unmarked) [Benz, Benserazide], in assay [1], the “selectivity against HK2 versus HK4” value stood at 8 fold. The “selectivity against HK2 versus HK1” value in assay [2] is listed as “about 5 fold”.
